# Measurements: patent US20150258192A1, “COMPOSITIONS AND METHODS FOR PREVENTING OR TREATING CHRONIC LUNG ALLOGRAFT DYSFUNCTION (CLAD) AND IDIOPATHIC PULMONARY FIBROSIS (IPF)” (priority 2014, published 2015)
# Amino acid sequences for entries named in this document (tags omitted). A change or cut given only in a name is not applied to a line headed by its entry. Residues count along the entry.
# UniProt P49840: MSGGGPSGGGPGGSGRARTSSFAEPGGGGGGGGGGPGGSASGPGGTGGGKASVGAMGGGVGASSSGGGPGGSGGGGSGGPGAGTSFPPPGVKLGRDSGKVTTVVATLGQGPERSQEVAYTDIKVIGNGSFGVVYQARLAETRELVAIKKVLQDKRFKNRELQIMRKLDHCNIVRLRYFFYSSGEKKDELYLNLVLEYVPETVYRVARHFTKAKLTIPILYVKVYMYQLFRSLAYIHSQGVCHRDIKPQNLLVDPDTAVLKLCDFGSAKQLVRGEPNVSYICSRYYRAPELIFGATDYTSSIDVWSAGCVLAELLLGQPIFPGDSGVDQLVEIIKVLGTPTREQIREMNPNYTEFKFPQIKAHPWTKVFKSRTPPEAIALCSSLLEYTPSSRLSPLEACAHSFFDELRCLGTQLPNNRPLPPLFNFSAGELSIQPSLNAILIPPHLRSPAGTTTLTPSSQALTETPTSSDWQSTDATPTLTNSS
# UniProt P78368: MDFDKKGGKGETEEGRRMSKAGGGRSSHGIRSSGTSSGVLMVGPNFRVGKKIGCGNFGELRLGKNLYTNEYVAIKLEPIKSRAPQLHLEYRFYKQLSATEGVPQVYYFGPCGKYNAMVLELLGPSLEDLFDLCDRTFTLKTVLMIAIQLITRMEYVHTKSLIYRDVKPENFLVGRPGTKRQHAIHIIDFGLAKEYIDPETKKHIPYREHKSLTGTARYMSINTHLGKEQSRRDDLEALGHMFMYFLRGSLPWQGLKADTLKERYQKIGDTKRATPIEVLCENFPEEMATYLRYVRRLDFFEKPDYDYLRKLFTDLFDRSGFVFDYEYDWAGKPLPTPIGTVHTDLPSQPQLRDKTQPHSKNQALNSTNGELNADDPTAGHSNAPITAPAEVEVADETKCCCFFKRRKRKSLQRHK
# UniProt P16234, 24-1089 D842V: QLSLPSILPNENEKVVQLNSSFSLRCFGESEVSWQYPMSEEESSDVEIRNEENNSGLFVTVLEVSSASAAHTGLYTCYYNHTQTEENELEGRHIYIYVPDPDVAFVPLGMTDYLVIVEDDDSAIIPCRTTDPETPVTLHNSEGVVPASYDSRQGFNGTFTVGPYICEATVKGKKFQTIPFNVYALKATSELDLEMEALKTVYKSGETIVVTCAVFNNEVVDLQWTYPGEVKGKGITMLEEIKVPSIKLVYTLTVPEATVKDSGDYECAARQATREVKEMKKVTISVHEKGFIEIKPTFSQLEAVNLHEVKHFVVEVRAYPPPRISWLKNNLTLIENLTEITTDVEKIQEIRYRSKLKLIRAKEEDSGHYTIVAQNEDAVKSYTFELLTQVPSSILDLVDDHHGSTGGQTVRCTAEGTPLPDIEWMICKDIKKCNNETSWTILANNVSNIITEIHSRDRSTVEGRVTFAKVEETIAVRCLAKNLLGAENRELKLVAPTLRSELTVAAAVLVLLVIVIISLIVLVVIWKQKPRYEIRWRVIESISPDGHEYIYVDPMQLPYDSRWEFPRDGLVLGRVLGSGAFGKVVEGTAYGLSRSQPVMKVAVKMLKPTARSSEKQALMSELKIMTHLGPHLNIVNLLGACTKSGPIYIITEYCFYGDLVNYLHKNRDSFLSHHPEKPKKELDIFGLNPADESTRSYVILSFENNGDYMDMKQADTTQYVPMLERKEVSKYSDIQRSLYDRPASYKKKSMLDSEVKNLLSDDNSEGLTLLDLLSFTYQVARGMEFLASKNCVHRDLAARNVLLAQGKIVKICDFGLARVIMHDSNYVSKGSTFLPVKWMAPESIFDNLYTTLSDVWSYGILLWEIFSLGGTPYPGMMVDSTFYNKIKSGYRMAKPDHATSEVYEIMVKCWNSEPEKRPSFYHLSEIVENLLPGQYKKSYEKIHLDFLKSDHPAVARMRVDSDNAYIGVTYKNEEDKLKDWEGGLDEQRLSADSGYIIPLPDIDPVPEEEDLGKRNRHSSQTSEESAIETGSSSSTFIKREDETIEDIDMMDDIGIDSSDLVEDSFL
# UniProt Q9NQU5: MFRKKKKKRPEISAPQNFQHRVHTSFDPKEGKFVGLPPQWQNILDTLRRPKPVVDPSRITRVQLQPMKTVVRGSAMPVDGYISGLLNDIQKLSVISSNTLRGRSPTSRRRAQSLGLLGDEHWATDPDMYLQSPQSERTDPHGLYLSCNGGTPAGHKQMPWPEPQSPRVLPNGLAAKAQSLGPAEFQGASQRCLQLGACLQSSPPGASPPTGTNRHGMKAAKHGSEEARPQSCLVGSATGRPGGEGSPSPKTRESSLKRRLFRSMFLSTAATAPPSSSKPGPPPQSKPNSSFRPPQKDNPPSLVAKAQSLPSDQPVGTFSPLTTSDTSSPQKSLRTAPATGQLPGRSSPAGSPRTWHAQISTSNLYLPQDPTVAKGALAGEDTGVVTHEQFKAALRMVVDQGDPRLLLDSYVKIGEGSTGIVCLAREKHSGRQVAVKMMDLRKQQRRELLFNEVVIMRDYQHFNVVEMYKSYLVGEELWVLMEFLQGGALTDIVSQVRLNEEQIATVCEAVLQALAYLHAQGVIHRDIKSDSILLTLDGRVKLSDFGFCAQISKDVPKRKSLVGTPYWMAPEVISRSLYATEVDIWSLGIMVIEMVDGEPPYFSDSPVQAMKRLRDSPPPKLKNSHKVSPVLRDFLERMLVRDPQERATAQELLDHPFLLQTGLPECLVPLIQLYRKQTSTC
# UniProt Q9Y5S2: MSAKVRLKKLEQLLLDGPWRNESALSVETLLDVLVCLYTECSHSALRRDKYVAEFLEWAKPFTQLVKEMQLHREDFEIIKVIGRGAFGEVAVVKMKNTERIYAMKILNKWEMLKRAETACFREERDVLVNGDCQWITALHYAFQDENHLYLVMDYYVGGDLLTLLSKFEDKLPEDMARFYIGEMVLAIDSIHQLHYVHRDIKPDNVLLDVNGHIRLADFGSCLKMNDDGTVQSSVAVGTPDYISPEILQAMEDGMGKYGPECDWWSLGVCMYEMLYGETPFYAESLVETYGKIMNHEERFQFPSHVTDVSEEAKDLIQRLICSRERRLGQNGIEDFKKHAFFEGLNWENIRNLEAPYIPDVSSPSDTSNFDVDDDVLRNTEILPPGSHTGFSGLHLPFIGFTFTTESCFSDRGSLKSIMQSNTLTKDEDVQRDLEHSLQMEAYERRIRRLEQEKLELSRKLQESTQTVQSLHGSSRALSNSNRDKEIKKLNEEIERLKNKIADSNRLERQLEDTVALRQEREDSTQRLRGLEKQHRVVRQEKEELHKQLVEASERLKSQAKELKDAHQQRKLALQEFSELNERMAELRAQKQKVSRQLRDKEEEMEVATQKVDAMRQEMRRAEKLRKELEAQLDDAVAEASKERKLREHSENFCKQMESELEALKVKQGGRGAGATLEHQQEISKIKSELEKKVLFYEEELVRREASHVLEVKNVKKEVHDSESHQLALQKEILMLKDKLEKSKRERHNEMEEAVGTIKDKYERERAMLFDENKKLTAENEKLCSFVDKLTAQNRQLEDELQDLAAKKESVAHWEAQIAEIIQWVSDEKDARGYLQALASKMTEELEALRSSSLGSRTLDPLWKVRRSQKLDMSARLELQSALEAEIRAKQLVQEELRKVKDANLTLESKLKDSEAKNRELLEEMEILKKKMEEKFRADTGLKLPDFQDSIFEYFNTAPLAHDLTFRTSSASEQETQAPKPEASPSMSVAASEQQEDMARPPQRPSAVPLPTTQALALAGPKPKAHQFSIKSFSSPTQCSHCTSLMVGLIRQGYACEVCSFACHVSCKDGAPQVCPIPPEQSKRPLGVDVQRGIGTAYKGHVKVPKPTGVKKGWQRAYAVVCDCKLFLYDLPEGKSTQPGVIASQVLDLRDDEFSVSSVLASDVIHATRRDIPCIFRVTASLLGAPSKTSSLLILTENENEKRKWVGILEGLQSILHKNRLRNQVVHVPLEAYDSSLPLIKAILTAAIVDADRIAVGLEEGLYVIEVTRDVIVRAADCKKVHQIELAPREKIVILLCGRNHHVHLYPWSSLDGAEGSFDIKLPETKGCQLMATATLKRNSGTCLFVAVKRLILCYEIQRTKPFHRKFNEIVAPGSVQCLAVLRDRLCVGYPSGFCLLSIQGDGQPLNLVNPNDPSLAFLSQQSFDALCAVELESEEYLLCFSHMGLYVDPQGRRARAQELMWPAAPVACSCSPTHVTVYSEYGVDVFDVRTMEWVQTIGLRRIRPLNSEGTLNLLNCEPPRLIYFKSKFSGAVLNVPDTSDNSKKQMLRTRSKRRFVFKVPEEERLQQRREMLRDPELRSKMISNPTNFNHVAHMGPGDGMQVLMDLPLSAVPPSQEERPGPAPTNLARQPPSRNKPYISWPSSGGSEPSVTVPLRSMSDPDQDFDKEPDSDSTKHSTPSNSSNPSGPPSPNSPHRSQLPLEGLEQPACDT
# UniProt Q07912: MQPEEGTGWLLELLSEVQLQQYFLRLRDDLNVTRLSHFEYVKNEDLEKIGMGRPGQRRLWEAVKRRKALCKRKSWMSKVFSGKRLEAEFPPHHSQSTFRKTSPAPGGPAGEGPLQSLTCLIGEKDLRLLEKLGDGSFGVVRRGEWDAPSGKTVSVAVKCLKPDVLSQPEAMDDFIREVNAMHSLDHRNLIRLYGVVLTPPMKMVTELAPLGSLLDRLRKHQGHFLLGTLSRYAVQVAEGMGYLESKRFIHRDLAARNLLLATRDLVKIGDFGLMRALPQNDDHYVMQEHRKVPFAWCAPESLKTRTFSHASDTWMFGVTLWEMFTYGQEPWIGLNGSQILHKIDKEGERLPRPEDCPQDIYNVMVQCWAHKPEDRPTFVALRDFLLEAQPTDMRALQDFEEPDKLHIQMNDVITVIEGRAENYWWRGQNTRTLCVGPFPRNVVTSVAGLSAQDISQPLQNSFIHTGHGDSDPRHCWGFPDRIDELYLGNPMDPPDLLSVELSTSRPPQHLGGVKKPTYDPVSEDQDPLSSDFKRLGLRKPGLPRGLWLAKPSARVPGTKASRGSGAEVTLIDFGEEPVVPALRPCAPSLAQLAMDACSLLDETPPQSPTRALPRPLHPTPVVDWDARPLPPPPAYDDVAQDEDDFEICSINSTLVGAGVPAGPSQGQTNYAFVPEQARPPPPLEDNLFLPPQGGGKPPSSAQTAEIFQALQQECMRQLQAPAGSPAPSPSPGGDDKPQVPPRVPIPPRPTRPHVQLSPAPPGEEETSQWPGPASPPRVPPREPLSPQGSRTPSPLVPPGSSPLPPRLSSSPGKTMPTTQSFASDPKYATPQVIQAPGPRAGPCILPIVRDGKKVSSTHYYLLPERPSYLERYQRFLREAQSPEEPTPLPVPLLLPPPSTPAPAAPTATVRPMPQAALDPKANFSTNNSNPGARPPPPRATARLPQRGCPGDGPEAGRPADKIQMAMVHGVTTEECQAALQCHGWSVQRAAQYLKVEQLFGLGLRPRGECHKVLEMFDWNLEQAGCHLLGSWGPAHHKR
# UniProt Q05397, whole entry: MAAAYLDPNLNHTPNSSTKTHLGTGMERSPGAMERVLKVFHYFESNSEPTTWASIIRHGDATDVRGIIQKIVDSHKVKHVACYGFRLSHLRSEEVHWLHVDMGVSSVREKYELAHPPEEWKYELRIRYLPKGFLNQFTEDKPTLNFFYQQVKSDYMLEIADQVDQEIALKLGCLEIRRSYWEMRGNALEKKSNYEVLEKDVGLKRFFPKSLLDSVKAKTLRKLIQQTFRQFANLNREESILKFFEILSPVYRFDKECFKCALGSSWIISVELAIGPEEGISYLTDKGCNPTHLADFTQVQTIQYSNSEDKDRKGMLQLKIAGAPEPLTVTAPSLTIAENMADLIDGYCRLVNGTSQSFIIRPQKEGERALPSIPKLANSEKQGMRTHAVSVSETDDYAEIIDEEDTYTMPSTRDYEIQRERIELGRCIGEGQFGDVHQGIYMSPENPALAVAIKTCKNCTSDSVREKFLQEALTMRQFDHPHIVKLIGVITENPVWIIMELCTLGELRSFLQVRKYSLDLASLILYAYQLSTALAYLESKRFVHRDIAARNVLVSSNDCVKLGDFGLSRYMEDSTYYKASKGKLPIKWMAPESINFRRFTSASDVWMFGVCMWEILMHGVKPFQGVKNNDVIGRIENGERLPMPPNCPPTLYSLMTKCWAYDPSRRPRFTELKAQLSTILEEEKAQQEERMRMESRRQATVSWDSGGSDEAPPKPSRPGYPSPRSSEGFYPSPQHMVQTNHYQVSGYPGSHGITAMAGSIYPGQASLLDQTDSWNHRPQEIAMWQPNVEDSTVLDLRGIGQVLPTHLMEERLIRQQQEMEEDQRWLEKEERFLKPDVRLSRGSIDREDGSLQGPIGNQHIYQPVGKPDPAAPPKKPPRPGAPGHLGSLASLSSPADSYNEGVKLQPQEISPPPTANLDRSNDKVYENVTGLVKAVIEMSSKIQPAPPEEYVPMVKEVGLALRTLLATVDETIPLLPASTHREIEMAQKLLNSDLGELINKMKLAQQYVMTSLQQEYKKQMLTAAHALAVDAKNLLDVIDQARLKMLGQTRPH
# Tests used:
# Assay in all cases: Kinase Profiling Assay
# Format in all cases: biochemical
# Settings in all cases: peptide 100 μM
# GSK3α(h) = target: T1, GSK3α(h) (Homo sapiens, UniProt P49840)
# T1 construct: purchased Millipore
# Procedure: (§1) Every kinase activity measurement was conducted in duplicate.
# (§2) Specifically, in these assays, a positively charged substrate is phosphorylated with a radiolabeled phosphate group from an ATP if the kinase is not inhibited by an inhibitor peptide. The positively charged substrate then is attracted to a negatively charged filter membrane, quantified with a scintillation counter, and compared to a 100% activity control.
# (§3) In addition to determining the IC50 of the compound, the specificity of MK2 inhibitory peptides was assessed by examining activities of all 266 human kinases available for testing in the Millipore kinase profiling service (Table 1).
# MAPK2(h) = target: T2, MAPK2(h) (Homo sapiens, UniProt P28482)
# T2 construct: purchased Millipore
# Procedure: as §1, §2, §3
# CK1γ2(h) = CK1γ2(h) (Homo sapiens, UniProt P78368)
# Procedure: as §1, §2, §3
# EphA1(h) = target: T3, EphA1(h) (Homo sapiens, UniProt P21709)
# T3 sequence (P21709 26-976): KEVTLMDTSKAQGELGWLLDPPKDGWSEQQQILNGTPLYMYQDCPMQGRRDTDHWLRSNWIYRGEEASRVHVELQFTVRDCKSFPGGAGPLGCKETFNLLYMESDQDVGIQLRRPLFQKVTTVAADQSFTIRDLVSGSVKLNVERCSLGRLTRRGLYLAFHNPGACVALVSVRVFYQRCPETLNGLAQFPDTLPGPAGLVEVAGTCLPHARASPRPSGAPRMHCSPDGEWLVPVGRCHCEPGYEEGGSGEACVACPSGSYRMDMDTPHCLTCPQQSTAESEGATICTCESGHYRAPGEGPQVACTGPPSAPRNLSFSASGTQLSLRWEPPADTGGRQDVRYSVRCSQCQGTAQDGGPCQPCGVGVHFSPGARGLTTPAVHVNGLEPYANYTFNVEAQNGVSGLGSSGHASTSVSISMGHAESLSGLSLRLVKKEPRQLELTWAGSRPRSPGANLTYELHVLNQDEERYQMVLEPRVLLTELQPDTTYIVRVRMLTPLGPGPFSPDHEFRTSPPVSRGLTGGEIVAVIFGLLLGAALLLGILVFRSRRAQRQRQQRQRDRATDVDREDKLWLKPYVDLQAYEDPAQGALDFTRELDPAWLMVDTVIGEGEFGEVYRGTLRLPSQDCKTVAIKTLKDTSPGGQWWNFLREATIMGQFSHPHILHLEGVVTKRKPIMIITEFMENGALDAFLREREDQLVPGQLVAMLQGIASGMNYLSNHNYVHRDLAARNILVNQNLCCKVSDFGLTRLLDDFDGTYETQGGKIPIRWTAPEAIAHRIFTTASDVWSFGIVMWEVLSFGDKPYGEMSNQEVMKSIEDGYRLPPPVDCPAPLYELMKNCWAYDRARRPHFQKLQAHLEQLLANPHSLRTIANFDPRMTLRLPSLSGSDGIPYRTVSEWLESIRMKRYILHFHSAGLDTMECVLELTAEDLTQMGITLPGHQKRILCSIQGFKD
# Procedure: as §1, §2, §3
# CDK1/cyclinB(h) = CDK1/cyclinB(h) (Homo sapiens, UniProt P06493)
# Procedure: as §1, §2, §3
# PDGFRα(D842V)(h) = PDGFRα(D842V)(h) (Homo sapiens, UniProt P16234, D842V)
# Procedure: as §1, §2, §3
# c-RAF(h) = c-RAF(h) (Homo sapiens, UniProt P04049)
# Procedure: as §1, §2, §3
# Abl(H396P)(h) = Abl(H396P)(h) (Homo sapiens, UniProt P00519, H396P)
# Procedure: as §1, §2, §3
# Aurora-A(h) = target: T4, Aurora-A(h) (Homo sapiens, UniProt O14965)
# T4 sequence (O14965 1-403): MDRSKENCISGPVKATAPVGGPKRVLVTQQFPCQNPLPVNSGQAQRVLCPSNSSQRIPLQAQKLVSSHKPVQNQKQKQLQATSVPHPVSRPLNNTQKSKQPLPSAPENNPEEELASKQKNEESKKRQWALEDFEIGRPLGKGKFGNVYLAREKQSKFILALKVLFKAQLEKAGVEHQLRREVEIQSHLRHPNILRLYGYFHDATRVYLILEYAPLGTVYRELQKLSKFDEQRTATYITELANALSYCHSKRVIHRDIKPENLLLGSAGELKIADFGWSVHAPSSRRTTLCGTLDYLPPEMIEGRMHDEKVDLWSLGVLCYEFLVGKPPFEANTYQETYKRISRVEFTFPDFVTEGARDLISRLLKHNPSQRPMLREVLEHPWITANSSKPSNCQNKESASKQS
# Procedure: as §1, §2, §3
# CDK2/cyclinA(h) = CDK2/cyclinA(h) (Homo sapiens, UniProt P24941)
# Procedure: as §1, §2, §3
# PAK6(h) = PAK6(h) (Homo sapiens, UniProt Q9NQU5)
# Procedure: as §1, §2, §3
# MRCKβ(h) = target: T5, MRCKβ(h) (Homo sapiens, UniProt Q9Y5S2)
# T5 construct: purchased Millipore
# Procedure: as §1, §2, §3
# ACK1(h) = ACK1(h) (Homo sapiens, UniProt Q07912)
# Procedure: as §1, §2, §3
# FAK(h) = FAK(h) (Homo sapiens, UniProt Q05397)
# Procedure: as §1, §2, §3
# CLK2(h) = CLK2(h) (Homo sapiens, UniProt P49760)
# Procedure: as §1, §2, §3
# TLK2(h) = TLK2(h) (Homo sapiens, UniProt Q86UE8)
# Procedure: as §1, §2, §3
# GRK5(h) = target: T6, GRK5(h) (Homo sapiens, UniProt P34947)
# T6 construct: purchased Millipore
# Procedure: as §1, §2, §3
Compound,% activity (GSK3α(h)),% activity (MAPK2(h)),% activity (CK1γ2(h)),% activity (EphA1(h)),% activity (CDK1/cyclinB(h)),% activity (PDGFRα(D842V)(h)),% activity (c-RAF(h)),% activity (Abl(H396P)(h)),% activity (Aurora-A(h)),% activity (CDK2/cyclinA(h)),% activity (PAK6(h)),% activity (MRCKβ(h)),% activity (ACK1(h)),% activity (FAK(h)),% activity (CLK2(h)),% activity (TLK2(h)),% activity (GRK5(h))
YARAAARQARAKALNRQLGVA (Mammal) [MMI-0200],119%,105%,104%,136%,115%,107%,115%,121%,107%,114%,105%,102%,,,,,
FAKLAARLYRKALARQLGVAA [MMI-0300],,,,,,114%,107%,,,,104%,,104%,111%,103%,114%,136%
CC(C)C[C@H](NC(=O)[C@H](C)NC(=O)[C@H](CCCCN)NC(=O)[C@H](C)NC(=O)[C@H](CCCNC(=N)N)NC(=O)[C@H](C)NC(=O)[C@H](CCC(N)=O)NC(=O)[C@H](CCCNC(=N)N)NC(=O)[C@H](C)NC(=O)[C@H](C)NC(=O)[C@H](C)NC(=O)[C@H](CCCNC(=N)N)NC(=O)[C@H](C)NC(=O)[C@@H](N)Cc1ccc(O)cc1)C(=O)N[C@@H](C)C(=O)N[C@@H](CCCNC(=N)N)C(=O)N[C@@H](CCC(N)=O)C(=O)N[C@@H](CC(C)C)C(=O)NCC(=O)N[C@H](C(=O)N[C@@H](C)C(=O)N[C@@H](C)C(=O)O)C(C)C [MMI-0100],183%,98%,119%,114%,96%,103%,97%,130%,120%,97%,121%,103%,106%,98%,88%,113%,117%
